Each structure is given as a SMILES string. Several values for one entry are separate records, joined by “and”; a condition that tells them apart may be missing. Identical values can stand only once. Only a part is listed here, and it is no random draw. Records with an inconclusive call do not appear. More than one record can exist for a structure, and the calls need not agree. Activity calls are given as the source filed them. Unless noted, calls follow the shape of the dose curve; as a rule, active = well fitted curve in the direction sought with a large enough effect in the repeat runs; inconclusive = weak or mixed curves; inactive = no such curve, though single readings can be large; an effect the other way counts as inactive or inconclusive.

Sequences of proteins named here, by UniProt entry; tags and fusion partners are left off. A change or cut given only in a name is not applied to a line headed by its entry.
UniProt P11511: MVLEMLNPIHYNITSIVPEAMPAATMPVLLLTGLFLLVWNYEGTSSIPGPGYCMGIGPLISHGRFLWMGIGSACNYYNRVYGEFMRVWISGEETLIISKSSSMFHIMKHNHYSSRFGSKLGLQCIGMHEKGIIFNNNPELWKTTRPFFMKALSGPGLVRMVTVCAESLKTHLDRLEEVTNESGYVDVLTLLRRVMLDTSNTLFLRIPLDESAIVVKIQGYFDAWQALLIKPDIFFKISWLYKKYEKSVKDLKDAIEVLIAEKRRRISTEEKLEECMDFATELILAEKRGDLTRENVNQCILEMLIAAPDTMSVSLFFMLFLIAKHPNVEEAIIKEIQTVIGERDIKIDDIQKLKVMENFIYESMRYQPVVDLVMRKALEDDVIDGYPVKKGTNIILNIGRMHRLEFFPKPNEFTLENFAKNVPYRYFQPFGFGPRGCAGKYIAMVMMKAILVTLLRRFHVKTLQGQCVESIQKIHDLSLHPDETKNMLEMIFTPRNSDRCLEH
UniProt P35869: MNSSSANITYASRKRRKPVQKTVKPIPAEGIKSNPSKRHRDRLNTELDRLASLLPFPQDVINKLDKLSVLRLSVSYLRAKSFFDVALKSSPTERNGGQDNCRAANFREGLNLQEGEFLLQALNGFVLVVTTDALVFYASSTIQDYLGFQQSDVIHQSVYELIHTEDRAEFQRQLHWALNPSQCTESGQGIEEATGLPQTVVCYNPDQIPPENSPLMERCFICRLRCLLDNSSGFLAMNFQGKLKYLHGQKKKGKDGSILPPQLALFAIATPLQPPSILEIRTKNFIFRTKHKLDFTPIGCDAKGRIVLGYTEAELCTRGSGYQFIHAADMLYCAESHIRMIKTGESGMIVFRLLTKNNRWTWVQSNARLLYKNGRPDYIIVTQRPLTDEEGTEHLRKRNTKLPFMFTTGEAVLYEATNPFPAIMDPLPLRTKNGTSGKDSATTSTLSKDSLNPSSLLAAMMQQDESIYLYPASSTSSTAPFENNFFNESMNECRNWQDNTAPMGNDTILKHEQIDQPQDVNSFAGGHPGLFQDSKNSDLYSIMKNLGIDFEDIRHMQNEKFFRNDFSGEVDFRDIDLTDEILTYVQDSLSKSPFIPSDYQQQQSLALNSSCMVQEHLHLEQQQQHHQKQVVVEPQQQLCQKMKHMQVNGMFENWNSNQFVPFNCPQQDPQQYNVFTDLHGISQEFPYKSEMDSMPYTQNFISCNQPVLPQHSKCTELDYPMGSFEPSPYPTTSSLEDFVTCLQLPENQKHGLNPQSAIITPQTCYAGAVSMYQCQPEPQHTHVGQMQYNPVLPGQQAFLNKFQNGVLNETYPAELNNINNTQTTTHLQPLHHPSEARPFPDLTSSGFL
UniProt P37231: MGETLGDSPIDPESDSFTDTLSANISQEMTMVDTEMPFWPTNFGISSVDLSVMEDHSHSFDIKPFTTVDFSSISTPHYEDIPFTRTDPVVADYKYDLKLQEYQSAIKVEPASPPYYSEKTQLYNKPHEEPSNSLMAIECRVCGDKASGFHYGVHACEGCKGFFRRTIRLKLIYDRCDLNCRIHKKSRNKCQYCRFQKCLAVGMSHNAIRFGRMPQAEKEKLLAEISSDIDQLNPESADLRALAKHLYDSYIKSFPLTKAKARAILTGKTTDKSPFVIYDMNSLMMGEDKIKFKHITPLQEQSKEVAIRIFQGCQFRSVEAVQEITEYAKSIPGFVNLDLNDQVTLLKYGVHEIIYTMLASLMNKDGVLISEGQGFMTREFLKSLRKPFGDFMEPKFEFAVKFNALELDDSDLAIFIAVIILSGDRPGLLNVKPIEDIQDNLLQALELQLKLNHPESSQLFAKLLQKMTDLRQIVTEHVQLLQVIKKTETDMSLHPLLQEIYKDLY
UniProt Q03181: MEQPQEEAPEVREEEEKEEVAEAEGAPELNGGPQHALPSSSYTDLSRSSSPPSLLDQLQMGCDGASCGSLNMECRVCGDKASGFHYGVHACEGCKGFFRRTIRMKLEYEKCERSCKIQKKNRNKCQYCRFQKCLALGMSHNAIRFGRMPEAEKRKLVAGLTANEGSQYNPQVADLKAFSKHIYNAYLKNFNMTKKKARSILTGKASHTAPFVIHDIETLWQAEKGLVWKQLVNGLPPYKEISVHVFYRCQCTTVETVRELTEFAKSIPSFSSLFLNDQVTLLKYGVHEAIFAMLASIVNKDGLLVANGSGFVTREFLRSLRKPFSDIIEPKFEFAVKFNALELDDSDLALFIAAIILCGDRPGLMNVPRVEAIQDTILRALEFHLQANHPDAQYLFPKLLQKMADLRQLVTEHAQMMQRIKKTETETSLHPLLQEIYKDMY
UniProt P11473: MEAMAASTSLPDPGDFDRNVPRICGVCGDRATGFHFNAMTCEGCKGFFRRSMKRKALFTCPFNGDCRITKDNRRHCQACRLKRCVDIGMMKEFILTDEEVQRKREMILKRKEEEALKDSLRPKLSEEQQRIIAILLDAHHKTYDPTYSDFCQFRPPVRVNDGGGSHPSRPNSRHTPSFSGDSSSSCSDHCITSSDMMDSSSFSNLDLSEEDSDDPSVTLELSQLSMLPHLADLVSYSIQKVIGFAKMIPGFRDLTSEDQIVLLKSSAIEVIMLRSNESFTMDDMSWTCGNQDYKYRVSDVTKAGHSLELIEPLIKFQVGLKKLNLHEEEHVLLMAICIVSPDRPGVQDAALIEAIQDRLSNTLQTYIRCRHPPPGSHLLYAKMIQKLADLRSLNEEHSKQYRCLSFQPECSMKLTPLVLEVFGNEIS
UniProt Q96RI1: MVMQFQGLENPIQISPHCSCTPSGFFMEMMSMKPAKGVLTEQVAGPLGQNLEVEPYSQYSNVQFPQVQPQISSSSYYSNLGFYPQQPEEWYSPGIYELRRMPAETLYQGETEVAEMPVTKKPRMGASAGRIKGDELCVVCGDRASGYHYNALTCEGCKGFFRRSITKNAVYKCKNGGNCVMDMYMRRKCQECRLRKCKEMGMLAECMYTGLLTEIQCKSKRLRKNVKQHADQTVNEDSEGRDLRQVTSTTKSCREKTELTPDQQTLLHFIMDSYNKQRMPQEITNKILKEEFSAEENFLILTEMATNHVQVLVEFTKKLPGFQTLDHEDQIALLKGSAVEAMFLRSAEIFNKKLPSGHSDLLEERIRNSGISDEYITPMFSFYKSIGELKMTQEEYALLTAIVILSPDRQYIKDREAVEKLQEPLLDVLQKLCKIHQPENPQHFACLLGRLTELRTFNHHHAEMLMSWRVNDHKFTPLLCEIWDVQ

The source of these data is PubChem BioAssay (Tox21).

Assay [1] in a line: qHTS assay to identify small molecule antagonists of the estrogen receptor alpha (ER-alpha) signaling pathway using the BG1 cell line - cell viability counter screen (AID 743081).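 Also: compound given together with 17beta-estradiol as the ER stimulus; nearly all actives have a fitted effect of over 45% in size.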 A general note: Quantitative high-throughput screening tests each substance at several concentrations.
The next assay has as its target Aromatase (Homo sapiens) (UniProt P11511). Kind of assay: qHTS assay to identify aromatase inhibitors (AID 743083). Also: nearly all actives have a fitted effect of over 55% in size.
Assay [2] is described as follows: qHTS assay to identify aromatase inhibitors - cell viability counter screen (AID 743084).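 Also: cells stimulated with testosterone during compound exposure; nearly all actives have a fitted effect of over 55% in size.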
Assay [3] deals with Aryl hydrocarbon receptor (Homo sapiens) (UniProt P35869). The assay is described as follows: qHTS assay to identify small molecule that activate the aryl hydrocarbon receptor (AhR) signaling pathway (AID 743085).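 Also: HG2L7.5c1 human HepG2 liver cells with stably integrated DRE-driven firefly reporter; nearly all actives have a fitted effect of over 15% in size.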
The nature of assay [4]: qHTS assay to identify small molecule that activate the aryl hydrocarbon receptor (AhR) signaling pathway - cell viability counter screen (AID 743086).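 Also: HepG2 liver cells carrying the AhR DRE luciferase reporter; nearly all actives have a fitted effect of over 45% in size.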 In short, it runs like this:
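HepG2-AhR-luc (HG2L7.5c1) cells, 4000/well, treated 24 h at 37 C with compound; viability measured as CellTiter-Fluor fluorescence after 30 min in the same wells as the luciferase read.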

The target of assay [5] is Peroxisome proliferator-activated receptor gamma (Homo sapiens) (UniProt P37231). The assay is described as follows: qHTS assay to identify small molecule agonists of the peroxisome proliferator-activated receptor gamma (PPARg) signaling pathway (AID 743094; active = well fitted activation curve with a large enough effect in the signal ratio in the repeat runs, not every such curve was filed as active; the % refers to the signal ratio). The note with it: HEK293H PPARg-UAS-bla, beta-lactamase FRET ratio, 17 h; at 57 µM (top of the series) unless noted. In short, it runs like this:
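GeneBLAzer PPARg UAS-bla HEK293H cells carrying a stably integrated beta-lactamase reporter were pre-incubated 5 h at 37C, then exposed to compounds in DMSO for 17 h at 37C; LiveBLAzer B/G FRET substrate was added for 1 h at room temperature and fluorescence read.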

A short description of assay [6]: qHTS assay to identify small molecule antagonists of the peroxisome proliferator-activated receptor gamma (PPARg) signaling pathway - cell viability counter screen (AID 743194). Also: nearly all actives have a fitted effect of over 55% in size. The procedure, abridged:
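Cytotoxicity counter screen in PPARg-bla HEK293H cells, same wells as reporter assay. Compounds plus 50 nM rosiglitazone (final) for 17 h at 37 C, then viability read by CellTiter-Glo luminescence.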

Assay [7] is described as follows: qHTS assay for small molecule agonists of the antioxidant response element (ARE) signaling pathway (AID 743202; active = well fitted activation curve with a large enough effect in the signal ratio in the repeat runs, not every such curve was filed as active; the % refers to the signal ratio). The procedure, abridged: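 ARE-bla HepG2 cells (beta-lactamase reporter under the antioxidant response element), plated 5 hours, then exposed to compounds 16 hours at 37 C. LiveBLAzer B/G FRET substrate added for 2 hours at room temperature; fluorescence intensity read.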

Assay [8] in a line: qHTS assay for small molecule agonists of the antioxidant response element (ARE) signaling pathway - cell viability counter screen (AID 743203; calls by dose curve; also: nearly all actives have a fitted effect of over 55% in size). The procedure, abridged: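 CellSensor ARE-bla HepG2 cells, 2,000 per well, rested 5 hrs at 37C/5% CO2, then exposed to compound in DMSO for 16 hrs; viability read as CellTiter-Glo luminescence after 30 min at room temperature, in the reporter wells.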

A short description of assay [9]: qHTS assay for small molecule activators of the heat shock response signaling pathway - cell viability counter screen (AID 743209). Also: nearly all actives have a fitted effect of over 50% in size. Also: potency is read from the fitted curve at half-maximal effect. In short, it runs like this:
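CellSensor HSE-bla HeLa cells, plated overnight at 37 C/5% CO2, were exposed to compounds in DMSO for 5 h at 37 C. Viability was then read in the same wells by CellTiter-Glo luminescence after 30 min at room temperature.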

Assay [10] is described as follows: qHTS assay for small molecule activators of the heat shock response signaling pathway (AID 743210; active = well fitted activation curve with a large enough effect in the signal ratio in the repeat runs, with a control signal flat, not every such curve was filed as active; the % refers to the signal ratio). To be noted: HeLa HSE-bla reporter, beta-lactamase ratio, 5 h; at 62.6 µM (top of the series) unless noted. The procedure, abridged: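 HSE-bla HeLa cells (beta-lactamase reporter under heat shock response elements), plated overnight, then exposed to compounds 5 h at 37 C; LiveBLAzer B/G FRET substrate added, 2.5 h at room temperature, fluorescence intensity read.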

Assay [11] can be described thus: qHTS assay to identify small molecule agonists of the peroxisome proliferator-activated receptor delta (PPARd) signaling pathway - cell viability counter screen (AID 743211). Also: nearly all actives have a fitted effect of over 55% in size. In short, it runs like this: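 PPARd-bla HEK293H cells (UAS-beta-lactamase reporter) were treated with compounds for 17 h at 37 C. Viability was then read in the same wells by CellTiter-Glo luminescence after 30 min at room temperature.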

The target in assay [12] is Peroxisome proliferator-activated receptor delta (Homo sapiens) (UniProt Q03181). The assay is described as follows: qHTS assay to identify small molecule agonists of the peroxisome proliferator-activated receptor delta (PPARd) signaling pathway (AID 743212; calls by dose curve). The note with it: HEK293H PPARd-UAS-bla, beta-lactamase FRET ratio, 17 h; at 62.6 µM (top of the series). The procedure, abridged: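 GeneBLAzer UAS-bla HEK293H cells carrying a PPARδ construct were exposed to compounds at 37 °C. Beta-lactamase activity was read by FRET fluorescence after 2 h at room temperature with LiveBLAzer B/G substrate.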

Assay [13] is described as follows: qHTS assay to identify small molecule antagonists of the farnesoid-X-receptor (FXR) signaling pathway - cell viability counter screen (AID 743221; active = well fitted cell-killing curve with a large enough effect in the repeat runs, not every such curve was filed as active; also: nearly all actives have a fitted effect of over 50% in size; also: potency is read from the fitted curve at half-maximal effect).
For assay [14], the target named is Vitamin D3 receptor (Homo sapiens) (UniProt P11473). Kind of assay: qHTS assay to identify small molecule agonists of the vitamin D receptor (VDR) signaling pathway (AID 743222; calls by dose curve). To be noted: HEK293T VDR-UAS-bla, beta-lactamase FRET ratio, 16 h; at 63.5 µM (top of the series) unless noted. In short, it runs like this: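 VDR-bla cells were plated 4 h at 37C/5% CO2, then exposed to compounds in DMSO for 16 h. After LiveBLAzer B/G FRET substrate addition and 2 h at room temperature, beta-lactamase reporter fluorescence was read.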

In assay [15] the target is Peroxisome proliferator-activated receptor gamma (Homo sapiens) (UniProt P37231). The assay is described as follows: qHTS assay to identify small molecule antagonists of the peroxisome proliferator-activated receptor gamma (PPARg) signaling pathway (AID 743191; calls by dose curve; also: nearly all actives have a fitted effect of over 30% in size). The note with it: HEK293H PPARg-UAS-bla, beta-lactamase ratio, antagonist, 17 h; at 62.6 µM (top of the series) unless noted.

Assay [16] deals with Peroxisome proliferator-activated receptor delta (Homo sapiens) (UniProt Q03181). Kind of assay: qHTS assay to identify small molecule antagonists of the peroxisome proliferator-activated receptor delta (PPARd) signaling pathway (AID 743215; active = well fitted inhibition curve with a large enough effect in the signal ratio in the repeat runs, not every such curve was filed as active; the % refers to the signal ratio;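 also: cells stimulated with agonist L165041 at 300 nM final during compound exposure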). The note with it: HEK293H PPARd-UAS-bla, beta-lactamase FRET ratio, antagonist, 17 h; at 62 µM (top of the series). The procedure, abridged:
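PPARd UAS-bla HEK293H cells were pre-incubated 5 h at 37 C, then given test compounds in DMSO plus agonist L165041 (300 nM final). After 17 h at 37 C, beta-lactamase FRET substrate was added; fluorescence read after 2 h at room temperature.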

The nature of assay [17]: qHTS assay to identify small molecule agonists of the farnesoid-X-receptor (FXR) signaling pathway - cell viability counter screen (AID 743218). Also: nearly all actives have a fitted effect of over 45% in size. Also: potency is read from the fitted curve at half-maximal effect. In short, it runs like this:
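FXR-UAS-bla HEK 293T cells, plated 5 h at 37 C, were exposed to compounds for 16 h at 37 C. CellTiter-Glo was then added to the same wells as the bla readout; luminescence read after 30 min at room temperature.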

For assay [18], the target named is Bile acid receptor (Homo sapiens) (UniProt Q96RI1). Kind of assay: qHTS assay to identify small molecule antagonists of the farnesoid-X-receptor (FXR) signaling pathway (AID 743217; active = well fitted inhibition curve with a large enough effect in the signal ratio in the repeat runs, not every such curve was filed as active; the % refers to the signal ratio). To be noted: HEK293T FXR-UAS-bla, beta-lactamase ratio, CDCA-stimulated, 16 h; at 62.6 µM (top of the series) unless noted. The procedure, abridged: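 FXR-UAS-bla HEK 293T cells pre-incubated 5 h at 37 °C, then exposed to compounds with chenodeoxycholic acid (50 uM final) for 16 h at 37 °C. Beta-lactamase reporter read by LiveBLAzer B/G FRET substrate fluorescence after 2 h at room temperature.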

Assay [19] has the same target. Kind of assay: qHTS assay to identify small molecule agonists of the farnesoid-X-receptor (FXR) signaling pathway (AID 743220; active = well fitted activation curve with a large enough effect in the signal ratio in the repeat runs, not every such curve was filed as active; the % refers to the signal ratio). To be noted: HEK293T FXR-UAS-bla, beta-lactamase FRET ratio, 16 h.
% is scaled to controls: 0 for no effect and ±100 for the full control effect.

On to `CCOC(=O)Cl`, for which the Potency entry (in [1]; in the assay with Aromatase (Homo sapiens); in assay [2]; in assay [3]; in assay [4]; in assay [6]) was “inactive” each time. Also, the Potency entry in [7], in assay [8], in assay [9], in assay [11] and in assay [13] was “inactive” throughout. Besides, the activation in [5] is inactive: 2.4%; in [10], inactive: 0.351%; in assay [12], inactive: -0.566%; in [14] it was inactive: 2.42%.
Take `CCCCCCCCCCCCCC[P+](CCCCCC)(CCCCCC)CCCCCC`: in assay [3], the Potency result was “inactive”. In addition, the Potency is active: 6.9 µM in [9] and active: 48.8 µM in assay [13].
For the compound `CCCCC(CC)CO[P+](=O)OCC(CC)CCCC` (centres undefined), the Potency entry (in assay [1]; in the assay with Aromatase (Homo sapiens); in [2]; in [3]; in assay [4]; in assay [6]) was “inactive” throughout. For the same compound, the Potency result in [7], in assay [8], in assay [9], in assay [11], in assay [17] and in assay [13] was “inactive” throughout. Further, the activation in assay [5] is inactive: -3.38%; in [10], inactive: -0.0125%; in [12], inactive: -1.93%; in assay [14], inactive: -4.17%. Further, the ratio activity, negative = inhibition was inactive: 0.543% in [15] and inactive: -0.628% in [16].
As for `CN(N=O)C(=N)N[N+](=O)[O-]`, the Potency entry in [1], in assay [4], in assay [7], in assay [8], in [11] and in assay [17] was “inactive” each time. For the same compound, the Potency result in [13] was “inactive”. In addition, the activation in [10] is inactive: 1.04%; in [14] it was inactive: -4.42%.
For the compound `O=[p+]1oc2ccccc2c2ccccc21` (centres undefined), the Potency entry (in assay [1]; in the assay with Aromatase (Homo sapiens); in [2]; in assay [3]; in [4]; in assay [6]) was “inactive” each time. In addition, the Potency result in [7], in assay [8], in [9], in assay [11], in [17] and in assay [13] was “inactive” throughout. In addition, the activation in assay [5] is inactive: 5.25%; in assay [10] it was inactive: -0.74%; in assay [12], inactive: -1.26%; in assay [19] (at 62.6 µM (top of the series)) it was inactive: -0.114%; in [14], inactive: -6.09%. Also, the ratio activity, negative = inhibition in assay [15] is inactive: 11.9%; in assay [16], inactive: 13.5%. The activity change, negative = inhibition in assay [18] is inactive: 1.03%.
For the compound `ClP(Cl)c1ccccc1`, the Potency entry (in [1]; in the assay with Aromatase (Homo sapiens); in assay [2]; in assay [4]; in [8]; in assay [9]) was “inactive” each time. In addition, the Potency result in assay [11], in assay [17] and in assay [13] was “inactive” in each case. For the same compound, the activation was inactive: 2.74% in assay [5], inactive: 1.46% in assay [10], inactive: -2.44% in [12] and inactive: 0.606% in assay [14]. The ratio activity, negative = inhibition in assay [15] is inactive: 3.63%; in [16], inactive: 2.46%.
With `O=C1C2CC=CCC2C(=O)N1SC(Cl)(Cl)C(Cl)Cl` (centres undefined), the Potency result in assay [3] is “inactive”. In addition, the Potency result in assay [17] was “inactive and active: 7.76 µM”. Moreover, the activation in assay [19] (at 62.6 µM (top of the series)) was inactive: -6.31%; in assay [19] (at 81.1 µM (top of the series)), inactive: 0.64%.
